The values that follow come from patent US5859257A (dated 1999).

The assay has as its target COX-2. Briefly: Evaluation of COX-2 activity in vitro (PGE2 ELISA, recombinant enzyme). It is filed as biochemical, human or murine. To be noted: read-out: COX-2 IC50, arachidonic acid 10 μM, pH 8.0, pre-incubation 10-20 minutes. On the technique in general: In an ELISA, binding on a coated surface is turned into a signal by an enzyme label.

For `NS(=O)(=O)c1ccc(-c2c(-c3ccccc3)noc2CO)cc1` [Example 10, 4-[5-Hydroxymethyl-3-phenylisoxazol-4-yl]benzenesulfonamide], the half-maximal inhibitory concentration (IC50) worked out at 0.2 µM.

Usually IC50 stands for the concentration needed to halve the response being measured.
